Assay results: patent US7030242B2, “Selective inhibition of aggrecanase in osteoarthritis treatment” (Pfizer Inc, priority 1999, dated 2006)

Biological target: T1, Human recombinant collagenase-1 (Homo sapiens, UniProt P03956)
T1 sequence (P03956 100-469): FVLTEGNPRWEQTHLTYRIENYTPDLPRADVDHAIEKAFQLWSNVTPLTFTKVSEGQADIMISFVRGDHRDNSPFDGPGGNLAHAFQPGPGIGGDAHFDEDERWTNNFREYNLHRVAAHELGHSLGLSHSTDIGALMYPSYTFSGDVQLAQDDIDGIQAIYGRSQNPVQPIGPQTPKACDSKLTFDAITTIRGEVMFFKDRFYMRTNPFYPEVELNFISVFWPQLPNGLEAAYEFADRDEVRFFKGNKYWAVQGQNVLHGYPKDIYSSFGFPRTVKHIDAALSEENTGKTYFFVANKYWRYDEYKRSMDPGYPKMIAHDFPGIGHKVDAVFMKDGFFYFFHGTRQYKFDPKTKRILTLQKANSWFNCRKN
Experiment: Inhibition of human collagenase-1 (recombinant collagenase-1 assay)
Type: biochemical
Settings: human recombinant enzyme, fluorogenic peptide substrate

IC50: 3 nM
SMILES: CNC(=O)[C@H](Cc1ccc(OC)cc1)NC(=O)[C@@H](CC(=O)NO)CC(C)C [drawing 51, reference compound]
